Laboratory results: publication PMC4932538, “Alkanediamide-Linked Bisbenzamidines Are Promising Antiparasitic Agents” (Pharmaceuticals, 2016)

Tests used:
[1] = tested on: both strains of P. falciparum; test: In vitro activity and selectivity, both strains of P. falciparum; type: cell-based, Plasmodium falciparum; details: ratio of the L6 cells IC50 to the P. falciparum IC50
[2] = tested on: T. brucei; details: ratio of the L6 cells IC50 to the T. brucei IC50

Compound	selectivity index for P. falciparum (SIP.f) [1]	selectivity index for T. brucei (SIT.b) [2]
N=C(N)c1ccc(NC(=O)CCCC(=O)Nc2ccc(C(=N)N)cc2)cc1 [Compound 5]	> 33,000	
N=C(N)c1ccc(NC(=O)CCCCC(=O)Nc2ccc(C(=N)N)cc2)cc1 [Compound 6]		> 50,000
